Like-named read-outs stand apart in the source and are kept apart here.
Columns and labels:
[1] = system: MCF7 (human breast cancer cells), low EGFR-expressing cell line; conditions: read-out: EC50 (IT-Cetuximab concentration showing 50% viability), IT-Cetuximab + 20 μM Talaporfin Sodium + light irradiation (650 nm, 37.6 mJ/cm^2), 72 hours culture
[2] = system: MCF7 (human breast cancer cells), low EGFR-expressing cell line; assay: Cytotoxicity assay of using aluminum phthalocyanine to MCF7 cells (CCK-8); type: cell-based

“IT-Cetuximab: biotinylated Cetuximab (anti-EGFR antibody) equivalently mixed with streptavidin-saporin to obtain saporin-bound Cetuximab” was tested, and the EC50 [1] was 610 pM, the EC50 ([2]; IT-Cetuximab + 1 μM AlPcS2a + light irradiation (650 nm, 18.8 mJ/cm^2), 72 hours culture, read-out: EC50 (IT-Cetuximab concentration showing 50% viability)) was 290 pM and the cytotoxic effects ([2]; immunotoxin alone at 20 nM, no photosensitizing dye, no light) was “no cytotoxic effects could be obtained”.

— US20230149555A1, “MEDICAMENT FOR KILLING TUMOR CELLS” (PhotoQ3 Inc., priority 2020, published 2023)
